Measurements: patent US9012651B2, “TRPV3 modulators” (AbbVie Inc., priority 2011, dated 2015)

The chains behind the UniProt entries cited, without tags or fusion partners. Where a name states a change or a piece, a line headed by the entry shows the natural chain unless it says otherwise.
UniProt Q8NET8: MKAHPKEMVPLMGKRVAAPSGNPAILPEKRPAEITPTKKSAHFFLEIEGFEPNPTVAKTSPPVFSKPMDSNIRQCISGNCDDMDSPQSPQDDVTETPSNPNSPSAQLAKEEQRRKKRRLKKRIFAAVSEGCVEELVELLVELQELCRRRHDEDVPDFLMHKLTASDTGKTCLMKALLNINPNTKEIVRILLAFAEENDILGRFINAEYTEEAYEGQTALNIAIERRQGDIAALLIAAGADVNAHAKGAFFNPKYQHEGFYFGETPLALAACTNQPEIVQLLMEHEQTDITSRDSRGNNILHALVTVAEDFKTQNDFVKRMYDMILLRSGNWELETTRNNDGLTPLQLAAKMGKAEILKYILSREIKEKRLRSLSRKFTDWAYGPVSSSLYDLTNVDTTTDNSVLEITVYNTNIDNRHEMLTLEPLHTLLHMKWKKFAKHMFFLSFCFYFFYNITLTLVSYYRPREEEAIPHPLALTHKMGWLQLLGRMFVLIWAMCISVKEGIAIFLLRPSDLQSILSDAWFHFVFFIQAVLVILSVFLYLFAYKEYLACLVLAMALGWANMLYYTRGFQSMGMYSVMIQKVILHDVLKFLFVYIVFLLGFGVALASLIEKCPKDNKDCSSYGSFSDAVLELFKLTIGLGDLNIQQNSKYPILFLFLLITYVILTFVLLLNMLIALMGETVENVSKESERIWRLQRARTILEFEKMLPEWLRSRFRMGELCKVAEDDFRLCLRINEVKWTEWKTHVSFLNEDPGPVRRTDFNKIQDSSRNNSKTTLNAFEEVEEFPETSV

Target: human TRPV3 receptors (Homo sapiens (Human), UniProt Q8NET8)
Experiment: Calcium flux assay (FLIPR TETRA), inhibition of the 2-APB response
Type: cell-based
Details: recombinant HEK293 cells stably expressing TRPV3, Calcium-4 dye, 2-APB at its EC80
Description: (i) In Vitro Methods-Calcium Flux Assays:
Experiments were conducted using the FLIPR^TETRA®. On the day prior to the experiment, recombinant HEK293 cells that stably express human and mouse TRPV3 were removed from tissue culture flasks and plated in growth medium at 20,000 cells/well into black-walled clear-bottom 384-well Biocoat™ poly-D-lysine assay plates (BD Biosciences, Bedford, Mass.) using a Multidrop® dispenser (ThermoScientific, Waltham, Mass.). […] Cells were incubated for 90-120 minutes in the dark. Compounds were dissolved in DMSO to prepare a 10 mM stock solution. The intensity of the fluorescence was captured and digitally transferred to an interfaced PC. The peak increase in fluorescence over baseline (relative fluorescence units) was calculated and expressed as the percentage of the maximal 2-APB (2-aminoethoxyldiphenyl borate) response (in the absence of compound).

O[C@@H]1CCCC[C@@H]1NCc1cccc(-c2ccc(C(F)(F)F)cc2)n1 [Example 4, (1R,2S)-2-[({6-[4-(trifluoromethyl)phenyl]pyridin-2-yl}methyl)amino]cyclohexanol] and O[C@H]1CCCC[C@H]1NCc1cccc(-c2ccc(C(F)(F)F)cc2)n1 [Example 7, (1S,2R)-2-[({6-[4-(trifluoromethyl)phenyl]pyridin-2-yl}methyl)amino]cyclohexanol] are within 1.5-fold of each other in IC50: 3000 nM for the first, 3250 nM for the second.

First: CC(C)[C@H](CO)NCc1nc(-c2ccc3scnc3c2)ccc1F [Example 234, (2R)-2-({[6-[1,3-benzothiazol-5-yl)-3-fluoropyridin-2-yl]methyl}amino)-3-methylbutan-1-ol]
Second: CC(C)[C@H](CO)NCc1nc(-c2ccc(Cl)s2)ccc1F [Example 242, (2R)-2-({[6-[5-chlorothiophen-2-yl)-3-fluoropyridin-2-yl]methyl}amino)-3-methylbutan-1-ol]
The IC50 of the first is 3.7-fold higher: 1520 nM for the first, 410 nM for the second.
